What was measured:
BRD4-1 = BRD4-1 (Homo sapiens, UniProt O60885); assay: Bromodomain binding affinity (tryptophan fluorescence binding assay); conditions: read-out: Binding Affinity, Kd BRD4-1; Table 2
BRD4-2 = BRD4-2 (Homo sapiens, UniProt O60885); assay: as above; conditions: read-out: Binding Affinity, Kd BRD4-2; Table 2

SMILES	Kd (BRD4-1) [µM]	Kd (BRD4-2) [µM]
Cc1cc(/N=N/c2ccc(S(=O)(=O)Nc3ccc(C(F)(F)F)cc3)cc2)cc(C)c1O	3.5	–
COc1cc(/N=N/c2ccc(S(=O)(=O)Nc3ccccn3)cc2)ccc1O	4.8	10.2
CC(C)c1cc(/N=N/c2ccc(S(=O)(=O)Nc3ccccn3)cc2)cc(C(C)C)c1O	505	–
O=S(=O)(Nc1ccccn1)c1ccc(/N=N/c2ccc(O)c3ccccc23)cc1	–	6.1
